Test results as given in patent US9266922B2, “Antigen peptide and uses thereof” (priority 2011, dated 2016).

How the values were obtained:
[1] = molecular target: T1, HLA A*0201 on CEM.T2 cell line (Homo sapiens, UniProt P04439, D140Y/D185E/D98H/E176V/E277Q/G131W/G231S/I119V/I121R/I166T/I218V/L300P/L318F/N151K/N90K/P208A/P217A/Q86G/Q94H/R138H/R169H/T345S); test: Cellular binding assay, HLA stabilization on CEM.T2 cells; type: cell-based; conditions: flow cytometry, FIG. 3A and 3B
T1 construct: This cell line expresses HLA A*0201 but is deficient for TAP transporter; endogenous in cells; host or cells: CEM.T2 (T2) cell line
Description: The CEM.T2 cell line (T2) is defective in the processing of proteins for presentation by MHC class 1 molecules. This cell line expresses HLA A*0201 but is deficient for TAP transporter. T2 is classically used to assess the Peptide/HLA-A*0201 Complex Stability[H. W. Nijman et al., 1993]
For HLA-A2*0201 stabilization, T2 cells (2×10^5/well) were incubated in serum-free RPMI (Gibco®-France) with 100 μM of selected peptide, at 37° C. for 4 h. Cells were washed two times with PBS supplemented with 1% BSA and stained with fluorescein isothiocyanate-conjugated anti HLA-A2 (Clone BB7.2) (BD Bioscience Pharmingen-France-) at 4° C. for 45 min. After 3 washes, cells were fixed in PBS supplemented with 2% paraformaldehyde and analyzed by FACS (FACScan, BD Bioscience). The percentage of peptide binding was calculated as follows: % Binding={(MFI peptide sample−MFI Neg control)/(MFI Pos control−MFI Neg control)}×100
The peptide […] from Hepatitis B Virus [I. A. Doytchinova et al., 2004] was used as positive control peptide. Negative control was done without peptide.

HLA-A*0201 = HLA-A*0201 (Homo sapiens, UniProt P04439, D140Y/D185E/D98H/E176V/E277Q/G131W/G231S/I119V/I121R/I166T/I218V/L300P/L318F/N151K/N90K/P208A/P217A/Q86G/Q94H/R138H/R169H/T345S); test: F-Score ranking (iTOPIA and CEM T2); conditions: overall ranking by iTOPIA and CEM T2 assays, nectin4 and reference peptides together
Description: These peptides present binding characteristics close to the well characterized GnTV, NY-ESO-1 and tyrosinase peptides used in clinics.

For “FLPSDFFPSV [HBV peptide, peptide from Hepatitis B Virus used as positive control peptide in the T2 assay, reference compound]”, the “HLA-A*0201 class I level on T2 cells” value [1] was “stabilized as well as peptide 145”.
In the case of “SLLMWITQV [Peptide 513, reference compound]”, the “RANK F-Score” value (HLA-A*0201) is reported as 2.
